The data set in a line: Selectivity index, ratio of IC50 for African green monkey Vero E6 cells to MIC50 for Mycobacterium bovis BCG ATCC 35734. Particulars: read-out: Selectivity Index. Format: toxicity, Vero C1008.

Take `CCCCCCCCn1cc(CN2CCC3(CC2)OCCO3)c2ccc(OC)cc21`: the selectivity ratio was 23.
